## Membrane permeability of cyclic peptides

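The data file gives no further conditions (lipid, pH, time, direction or concentration), and values from different papers need not be comparable. The list need not hold all peptides of the study. Peptides that the database sets to -10, its floor, are left out.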

PAMPA measures passive passage through an artificial lipid membrane.
Values are log10 P with P in cm/s, so -5 is more permeable than -7.

SMILES,PAMPA (log10 cm/s)
CC(C)C[C@@H]1NC(=O)[C@@H]2CCCN2C(=O)[C@@H](CC(C)C)N(C)C(=O)[C@@H](CC(C)C)NC(=O)[C@H](C)N(C)C(=O)[C@H]2CCCN2C(=O)[C@H](Cc2ccccc2)NC1=O,-6.45
CC(C)C[C@@H]1NC(=O)[C@@H](C)N(C)C(=O)[C@@H]2CCCN2C(=O)[C@H](Cc2ccccc2)NC(=O)[C@H](CC(C)C)N(C)C(=O)[C@H]2CCCN2C(=O)[C@H](CC(C)C)NC1=O,-5.73
CC(C)C[C@H]1C(=O)N(C)[C@@H](CC(C)C)C(=O)N2CCC[C@H]2C(=O)N(Cc2ccccc2)CC(=O)N[C@@H](Cc2ccccc2)C(=O)N2CCC[C@H]2C(=O)N(C)[C@H](C)C(=O)N1C,-5.55
CC(C)C[C@@H]1C(=O)N[C@@H](Cc2ccccc2)C(=O)N2CCC[C@@H]2C(=O)N(C)[C@H](C)C(=O)N[C@H](CC(C)C)C(=O)N[C@H](CC(C)C)C(=O)N2CCC[C@H]2C(=O)N1C,-5.78
CC(C)C[C@@H]1NC(=O)[C@@H](C)NC(=O)[C@H]2CCCN2C(=O)[C@H](Cc2ccccc2)NC(=O)CN(Cc2ccccc2)C(=O)[C@@H]2CCCN2C(=O)[C@@H](CC(C)C)NC1=O,-6.25
CCCN1CC(=O)N[C@H](CC(C)C)C(=O)N(C)[C@H](CC(C)C)C(=O)N2CCC[C@@H]2C(=O)N(Cc2ccccc2)CC(=O)N[C@@H](Cc2ccccc2)C(=O)N2CCC[C@H]2C1=O,-5.88
CC(C)C[C@@H]1NC(=O)[C@H](C)NC(=O)[C@@H]2CCCN2C(=O)[C@H](Cc2ccccc2)NC(=O)[C@@H](CC(C)C)N(C)C(=O)[C@@H]2CCCN2C(=O)CN(Cc2ccccc2)C1=O,-5.94
CC(C)C[C@@H]1NC(=O)[C@@H]2CCCN2C(=O)CN(Cc2ccccc2)C(=O)[C@@H](CC(C)C)NC(=O)[C@H](C)N(C)C(=O)[C@@H]2CCCN2C(=O)[C@H](Cc2ccccc2)NC1=O,-6.79
CC(C)C[C@@H]1NC(=O)[C@@H](C)N(C)C(=O)[C@@H]2CCCN2C(=O)[C@H](Cc2ccccc2)NC(=O)[C@@H](CC(C)C)N(C)C(=O)[C@@H]2CCCN2C(=O)[C@@H](CC(C)C)NC1=O,-5.43
CC(C)C[C@@H]1NC(=O)[C@@H]2CCCN2C(=O)[C@H](CC(C)C)NC(=O)CN(Cc2ccccc2)C(=O)C[C@H](Cc2ccccc2)NC(=O)[C@H]2CCCN2C(=O)[C@H](Cc2ccccc2)NC1=O,-5.85
CC(C)C[C@@H]1NC(=O)[C@@H]2CCCN2C(=O)[C@H](CC(C)C)N(C)C(=O)[C@@H](CC(C)C)NC(=O)[C@H](C)N(C)C(=O)[C@@H]2CCCN2C(=O)[C@H](Cc2ccccc2)NC1=O,-6.77
CC(C)C[C@@H]1NC(=O)[C@@H]2CCCN2C(=O)CN(Cc2ccccc2)C(=O)[C@H](CC(C)C)N(C)C(=O)[C@@H](C)N(C)C(=O)[C@H]2CCCN2C(=O)[C@H](Cc2ccccc2)NC1=O,-6.04
CC(C)C[C@@H]1NC(=O)[C@@H]2CCCN2C(=O)[C@@H](CC(C)C)NC(=O)[C@@H](CC(C)C)N(C)C(=O)[C@@H](C)NC(=O)[C@H](Cc2ccccc2)NC1=O,-6.06
CC(C)C[C@@H]1C(=O)N2CCC[C@H]2C(=O)N[C@H](CC(C)C)C(=O)N[C@@H](Cc2ccccc2)C(=O)N[C@H](C)C(=O)N(C)[C@@H](CC(C)C)C(=O)N1C,-5.14
CC(C)C[C@@H]1NC(=O)[C@@H](CC(C)C)NC(=O)[C@@H](C)NC(=O)[C@H](Cc2ccccc2)NC(=O)[C@@H](CC(C)C)N(C)C(=O)[C@@H]2CCCN2C1=O,-5.85
CCCN1CC(=O)N[C@H](CC(C)C)C(=O)N(C)[C@H](CC(C)C)C(=O)N2CCC[C@@H]2C(=O)N(C)[C@@H](CC(C)C)C(=O)N[C@@H](Cc2ccccc2)C(=O)N2CCC[C@@H]2C1=O,-5.11
CC(C)C[C@@H]1C(=O)N[C@@H](Cc2ccccc2)CC(=O)N2CCC[C@H]2C(=O)N[C@H](CC(C)C)C(=O)N[C@@H](Cc2ccccc2)C(=O)N2CCC[C@@H]2C(=O)N(C)[C@@H](C)C(=O)N1C,-5.91
CCCN1CC(=O)N(C)[C@H](CC(C)C)C(=O)N(C)[C@H](CC(C)C)C(=O)N2CCC[C@@H]2C(=O)N[C@H](CC(C)C)C(=O)N[C@@H](Cc2ccccc2)C(=O)N2CCC[C@H]2C1=O,-5.88
CCCN1CC(=O)N(C)[C@H](CC(C)C)C(=O)N(Cc2ccccc2)CC(=O)N2CCC[C@@H]2C(=O)N[C@H](CC(C)C)C(=O)N[C@@H](Cc2ccccc2)C(=O)N2CCC[C@@H]2C1=O,-5.43
CC(C)C[C@@H]1NC(=O)[C@@H](C)N(C)C(=O)[C@H]2CCCN2C(=O)[C@H](Cc2ccccc2)NC(=O)[C@@H](CC(C)C)NC(=O)[C@@H]2CCCN2C(=O)[C@@H](CC(C)C)N(C)C1=O,-5.51
CC(C)C[C@H]1NC(=O)[C@@H](C)NC(=O)[C@H](Cc2ccccc2)NC(=O)CN(Cc2ccccc2)C(=O)[C@H]2CCCN2C(=O)CN(Cc2ccccc2)C1=O,-6.15

3 of these entries, quoted again:

SMILES	PAMPA (log10 cm/s)
CC(C)C[C@@H]1NC(=O)[C@H](C)NC(=O)[C@@H]2CCCN2C(=O)[C@H](Cc2ccccc2)NC(=O)[C@@H](CC(C)C)N(C)C(=O)[C@@H]2CCCN2C(=O)CN(Cc2ccccc2)C1=O	-5.94
CC(C)C[C@@H]1C(=O)N[C@@H](Cc2ccccc2)CC(=O)N2CCC[C@H]2C(=O)N[C@H](CC(C)C)C(=O)N[C@@H](Cc2ccccc2)C(=O)N2CCC[C@@H]2C(=O)N(C)[C@@H](C)C(=O)N1C	-5.91
CC(C)C[C@H]1NC(=O)[C@@H](C)NC(=O)[C@H](Cc2ccccc2)NC(=O)CN(Cc2ccccc2)C(=O)[C@H]2CCCN2C(=O)CN(Cc2ccccc2)C1=O	-6.15

Collected by the curators of CycPeptMPDB (Li et al. 2023) from Townsend et al. 2020, doi:10.26434/chemrxiv.13335941.v1.